Literature values in article PMC12276038, “Impact of Chelation on Reactivity and Cytotoxicity of Hemilabile Biphenyl Gold(III) N‐Heterocyclic Carbene Complexes” (Chemmedchem, 2025).

Conditions: molecules of known Log(k′w) used for calibration; cited from earlier work

SMILES: CCCCc1ccccc1 [Butylbenzene]
- log(k’w) of log P standard mix: 4.6
